For four compounds, Activity results are on record in ChEMBL document CHEMBL5104186, “Structure-Activity Relationship and Neuroprotective Activity of 1,5-Dihydro-2H-naphtho[1,2-b][1,4]diazepine-2,4(3H)-diones as P2X4 Receptor Antagonists” (J Med Chem, 2022).

Amino acid sequences for entries named in this document (tags omitted). A change or cut given only in a name is not applied to a line headed by its entry.
UniProt Q9UBL9: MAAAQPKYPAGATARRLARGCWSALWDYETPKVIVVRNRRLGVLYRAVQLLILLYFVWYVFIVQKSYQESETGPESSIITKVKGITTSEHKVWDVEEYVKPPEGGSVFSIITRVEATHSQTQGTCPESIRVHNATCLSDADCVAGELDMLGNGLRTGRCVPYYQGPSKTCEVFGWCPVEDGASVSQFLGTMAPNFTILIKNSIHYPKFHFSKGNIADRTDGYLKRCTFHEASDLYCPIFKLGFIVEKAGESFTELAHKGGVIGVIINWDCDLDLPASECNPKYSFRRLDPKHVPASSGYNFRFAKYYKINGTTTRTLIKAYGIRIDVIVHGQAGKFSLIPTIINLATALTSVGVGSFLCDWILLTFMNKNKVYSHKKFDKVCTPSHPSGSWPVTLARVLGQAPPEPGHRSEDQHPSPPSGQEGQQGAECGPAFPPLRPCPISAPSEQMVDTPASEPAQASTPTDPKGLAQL

Assay type in all cases: cell-based
Design in all cases: scale not given: the % may be the effect or the level left

For assay [1], the target named is P2X2/P2X3 heterotrimeric receptor (Homo sapiens) (UniProt Q9UBL9+P56373). The assay can be described thus: Antagonist activity at human P2X2/3R transfected in CHO-K1 cells at 30 uM preincubated for 30 mins followed by alpha,beta-meATP addition by fluorescence based assay relative to control.
Assay [2] addresses T1, P2X purinoceptor 3 (Homo sapiens) (UniProt P56373).
T1 sequence (whole entry): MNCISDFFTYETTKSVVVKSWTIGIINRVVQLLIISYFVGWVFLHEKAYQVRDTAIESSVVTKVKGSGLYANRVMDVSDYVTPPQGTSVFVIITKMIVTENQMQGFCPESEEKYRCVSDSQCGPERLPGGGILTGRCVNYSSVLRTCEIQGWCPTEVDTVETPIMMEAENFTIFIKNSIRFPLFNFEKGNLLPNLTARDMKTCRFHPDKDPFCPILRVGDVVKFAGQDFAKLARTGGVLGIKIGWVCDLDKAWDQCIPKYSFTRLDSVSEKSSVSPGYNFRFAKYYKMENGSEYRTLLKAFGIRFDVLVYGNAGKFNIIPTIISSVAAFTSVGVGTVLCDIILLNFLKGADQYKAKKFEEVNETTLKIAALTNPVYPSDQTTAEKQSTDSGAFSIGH
The assay can be described thus: Antagonist activity at human P2X3R transfected in CHO-K1 cells at 30 uM preincubated for 30 mins followed by alpha,beta-meATP addition by fluorescence based assay relative to control.

Assay [3] addresses T2, P2X purinoceptor 1 (Homo sapiens) (UniProt P51575).
T2 sequence (whole entry): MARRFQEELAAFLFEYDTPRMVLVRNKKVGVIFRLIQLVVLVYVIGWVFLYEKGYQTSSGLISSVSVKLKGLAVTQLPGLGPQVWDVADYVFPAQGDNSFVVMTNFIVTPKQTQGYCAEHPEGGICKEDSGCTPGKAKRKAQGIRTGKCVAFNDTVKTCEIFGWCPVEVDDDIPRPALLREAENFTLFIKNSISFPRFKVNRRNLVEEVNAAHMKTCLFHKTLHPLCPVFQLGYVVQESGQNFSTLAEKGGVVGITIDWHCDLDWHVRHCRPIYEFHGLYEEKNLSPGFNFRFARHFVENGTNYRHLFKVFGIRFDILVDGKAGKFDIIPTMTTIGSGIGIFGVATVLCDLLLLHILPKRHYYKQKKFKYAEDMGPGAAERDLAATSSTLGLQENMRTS
The assay can be described thus: Antagonist activity at human P2X1R transfected in CHO-K1 cells at 30 uM preincubated for 30 mins followed by alpha,beta-meATP addition by […] based assay relative to control.

In the case of `CCN(CC)CC.O=C1CC(=O)N(c2ccnc(-c3noc(=S)[nH]3)c2)c2ccc3ccccc3c2N1`, the Activity was 0% in assay [1], 11% in assay [2] and 15% in assay [3].

Turning to `Cc1ccc2ccc3c(c2c1)NC(=O)CC(=O)N3c1cccc(-c2noc(=S)[nH]2)c1`, the figures for the Activity in assay [1], in assay [2] and in assay [3] were 9%, 13% and 6%, respectively.

As for `Cc1ccc2c3c(ccc2c1)N(c1cccc(-c2noc(=S)[nH]2)c1)C(=O)CC(=O)N3`, the results for the Activity in assay [1], in assay [2] and in assay [3] were 11%, 6% and -4%, respectively.

For `O=C1CC(=O)N(c2cccc(-c3noc(=S)[nH]3)c2)c2cc(Br)c3ccccc3c2N1`, the Activity in assay [1] was found to be 11%; in assay [2], 7%; in assay [3], 5%.
